Results reported in patent US20160000775A1, “USE OF HIGH DOSE LAQUINIMOD FOR TREATING MULTIPLE SCLEROSIS” (Teva Pharmaceutical Industries, Ltd., priority 2012, published 2016).

Test system: subjects with RRMS
Assay: BRAVO Phase III clinical trial, laquinimod 0.6 mg over placebo with reference arm IFN-β-1a (Avonex®)
Type: in vivo, human
Conditions: vs placebo, 24 months
Method: ALLEGRO and BRAVO are two clinical trials reported in, e.g., PCT International Application Publication No. WO/2010/147665 ([…] et al.). BRAVO was a study performed in subjects with RRMS to assess the efficacy, safety and tolerability of laquinimod 0.6 mg over placebo in a double-blind design with a reference arm of IFN-β-1a (Avonex®) in a rater-blinded assessment. The study had treatment duration of 24 months and enrolled 1,331 subjects equally distributed between the three (3) treatment arms. The primary endpoint was ARR. Secondary endpoints were Brain atrophy, time to EDSS progression confirmed at 3 months and MSFC z-score. […] One of the basic assumptions used to assess the sample size for the study was that treatment with laquinimod will reduce the patient population ARR by 25% or more when compared to the placebo group. […] In light of this baseline imbalance, these two baseline MRI parameters were added to the model as additional covariates. […] It is inventors' assessment that the corrected results more adequately represent the true treatment effect of laquinimod.

[1] = corrected post-hoc analysis with two baseline MRI covariates

B1: Avonex®: IFN-β-1a (Avonex®), reference arm/comparator in the BRAVO study (protein, UniProt P01574 22-187, looked up)
Interferon beta: MSYNLLGFLQRSSNFQCQKLLWQLNGRLEYCLKDRMNFDIPEEIKQLQQFQKEDAALTIYEMLQNIFAIFRQDSSSTGWNETIVENLLANVYHQINHLKTVLEEKLEKEDFTRGKLMSSLHLKRYYGRILHYLKAKEYSHCAWTIVRVEILRNFYFINRLTGYLRN
ARR % reduction, Corrected [1]: 28.6% | Brain Atrophy % reduction, Corrected [1]: −9% | Cumulative number of GdE T1 lesions % reduction, Corrected [1]: 60% | Cumulative number of new T2 lesions (exploratory endpoint) % reduction, Corrected [1]: 52.3% | EDSS Progression (3 m confirmation) % reduction, Corrected [1]: 28.7% | MSFC % reduction, Corrected [1]: 63.7% | ARR % reduction, Corrected (corrected post-hoc analysis with two baseline MRI covariates, listed as Avonex ®): 28.7% | ARR % reduction, Original (original analysis): 25.9% | Brain Atrophy % reduction, Original (original analysis): −10% | Cumulative number of GdE T1 lesions % reduction, Original (original analysis): 61.5% | Cumulative number of new T2 lesions (exploratory endpoint) % reduction, Original (original analysis): 51.1% | EDSS Progression (3 m confirmation) % reduction, Original (original analysis): 25.8% | MSFC % reduction, Original (original analysis): 66.6% | ARR % reduction, Original (original analysis, listed as Avonex ®): 25.9%
